In PubChem BioAssay (NCATS):
Only a part is listed here, and it is no random draw. Results filed as inconclusive are left out. Activity calls are given as the source filed them. Calls come from the whole dose curve; as a rule, active = well fitted curve in the direction sought with a large enough effect; inconclusive = small, poorly fitted or top-dose-only effect, or another doubt; inactive = no such curve, though single readings can be large; an effect the other way counts as inactive or inconclusive.

The chains behind the UniProt entries cited, without tags or fusion partners.
UniProt P24462, whole entry: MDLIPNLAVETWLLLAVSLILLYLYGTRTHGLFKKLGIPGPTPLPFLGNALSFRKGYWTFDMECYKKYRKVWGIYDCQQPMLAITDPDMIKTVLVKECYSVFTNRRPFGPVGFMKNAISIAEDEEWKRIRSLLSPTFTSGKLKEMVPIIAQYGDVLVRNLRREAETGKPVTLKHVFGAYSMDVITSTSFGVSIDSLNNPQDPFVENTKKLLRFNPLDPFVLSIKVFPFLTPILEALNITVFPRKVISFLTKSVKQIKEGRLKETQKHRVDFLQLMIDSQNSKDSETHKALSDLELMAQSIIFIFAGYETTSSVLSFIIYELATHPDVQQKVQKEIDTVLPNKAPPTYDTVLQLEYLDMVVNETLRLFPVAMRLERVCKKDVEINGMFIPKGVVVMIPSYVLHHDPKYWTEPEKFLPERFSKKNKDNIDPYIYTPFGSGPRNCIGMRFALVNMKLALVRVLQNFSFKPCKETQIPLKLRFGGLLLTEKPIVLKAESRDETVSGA

What was measured:
[1] = molecular target: Cytochrome P450 3A7 (Homo sapiens) (UniProt P24462); test: Cytochrome P450 family 3 subfamily A member 7 (CYP3A7) small molecule antagonists: luciferase qHTS assay (AID 1963596; note: nearly all actives have a fitted effect of over 40% in size; note: potency is the fitted concentration of half-maximal effect)
Description: National Center for Advancing Translational Sciences [NCATS] Assay Overview: Cytochrome P450 (CYP) enzymes are membrane-bound hemeproteins that play a key role in metabolism of drugs and xenobiotics. The CYP3A subfamily is the most abundant, representing 30% of the total adult hepatic CYP content, whereas CYP3A7 is found predominantly in human fetal liver and accounts up to 50% of the total fetal hepatic CYP content. Testing the effect of chemicals on CYP isozymes is useful to minimize the adverse drug reactions and toxicities in the drug development process. Chemicals were tested for their effect on CYP enzyme activities by using P450-Glo (TM) screening systems (Promega Corporation, Madison, WI). […] The luciferin products formed are detected with a luciferin detection reagent, and the amount of light produced is proportional to CYP activity. […]
Assay Protocol Summary: Two ul of enzyme-substrate mix was dispensed into medium binding white/solid 1536-well plates (Greiner Bio-One North America Inc., Monroe, NC) using a Flying Reagent Dispenser (FRD, Aurora Discovery, San Diego, CA). […] The reaction was stopped by adding 4 ul of detection reagent using an FRD and after 20 min incubation at room temperature the luminescence signal was measured using a ViewLux plate reader (Perkin Elmer, Shelton, CT). Data were expressed as relative luminescence units.

[2] = Viability qHTS for spleen associated tyrosine kinase inhibitor (SYKi) naive MV4-11 cells (AID 1963823); settings: MV4-11 AML viability, CellTiter-Glo luminescence, 72 h; at 45 µM (top of the series); note: nearly all actives have a fitted effect of over 40% in size
Description: Department of Medicine, Hematology/Oncology
University Hospital Frankfurt, Germany.
Trials have shown promising clinical activity of the selective SYK inhibitor entospletinib in patients with high expressing HOXA9/MEIS1 acute leukemias. As the development of resistance mechanisms is a common problem in the use of targeted drugs, we performed a chemical library screen to identify drug sensitivities in SYK inhibitor resistant AML cells. […] Glucocorticoids are potent immunosuppressants which work in part by inhibiting the transcription of cytokine genes.
Described herein is a viability screen to look for activity in the SYK inhibitor naive cell line against four NCATS compound libraries (MIPE 5.0, NPC, NPACT, and Kinase) totaling 11372 compounds. Active hits were reacquired for confirmation and further secondary assay testing.
SEQUENCE No. (e.g., 1, 2, 3, etc.); […] (e.g., Cells, Incubation, Reagent, etc.); VALUE; DESCRIPTION.
1; Media; 2uL; white, solid-bottom Corning assay plate.
2; Compounds; 23nL; Echo acoustic dispenser.
3; Cell; 5uL; 500 cells per well.
4: Incubation; 72hr; 37 C, 5% CO2, 95% humidity.
5; Reagent; 3uL; CellTiter-Glo reagent (Promega).
6; Incubation; 10min; room temperature.
7; Detection; Luminescence; ViewLux plate reader (PerkinElmer).
NOTES (numbers refer to Sequence numbers above
1. Quantitative high-throughput screening (qHTS) of small molecule compounds was conducted on naive SYKi MV4-11 cell line.
2. Twenty-three nanoliter of small molecule compounds were added to each assay plates using the Echo acoustic dispenser (Beckman Coulter).
3. Cells were seeded into the assay plates at a final density of 500 cells in 5uL of media per well using the Multi-drop Combi dispenser.
4. Plates were covered with stainless steel gasketed lids and incubated for 72 hours at standard cell culture conditions.
5. Viability was assessed by adding 3uL of CellTiter-Glo detection reagent (Promega).
6. Plates were covered with gasket lids and incubated for 10 minutes at room temperature.
7. Luminescence was measured on a ViewLux plate reader (PerkinElmer).

[3] = Viability qHTS for spleen associated tyrosine kinase inhibitor (SYKi) drug resistant MV4-11 cells (AID 1963824); settings: SYKi-resistant MV4-11 viability, CellTiter-Glo, 72 h; at 45 µM (top of the series); note: nearly all actives have a fitted effect of over 35% in size
In short: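 SYK inhibitor-resistant MV4-11 AML cells, 500 per well, added to predispensed compounds and incubated 72 hr at 37 C, 5% CO2. Viability measured by CellTiter-Glo luminescence after 10 min at room temperature.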

[4] = Cellular viability qHTS for adrenocortical cancer (ACC) cell line SW-13 (AID 1963989); settings: SW-13 ACC cells viability, CellTiter-Glo, 48 h; active compounds read low;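 note: cells grown in serum-free medium with ITS supplement; % is set by controls: 0 for no effect and ±100 for the full control effect; nearly all actives have a fitted effect of over 65% in size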
In short: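 IC50 and maximal-response values come from four-parameter logistic fits of titration data. SW-13 cells in serum-free medium received compounds (up to 46 uM final) for 48 h before CellTiter-Glo luminescence.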

[5] = Cellular viability qHTS for adrenocortical cancer (ACC) cell line NCI-H295R (AID 1963990); settings: CellTiter-Glo ATP luminescence, 48 h; at 46.1 µM (top of the series);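 note: 0% = DMSO only wells and -100% = full killing with cytotoxic reference compound; nearly all actives have a fitted effect of over 60% in size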
In short: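 Adrenocortical carcinoma cells, suspended at 300 000 cells/mL in serum-free DMEM plus ITS, rested overnight before pin transfer of compound. After two days' incubation, ATP-dependent luminescence was recorded and curve-fitted.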

[6] = Quantitative highthroughput screen to assess conditional lethalithy of P12 Ichikawa cells grown in Human Plasma-Like Medium with dialyzed fetal bovine serum (HPLM+ds) (AID 1963879); settings: ATP luminescence, 48 h; at 45.8 µM (top of the series); note: nearly all actives have a fitted effect of over 35% in size
Description: (§1) Assay Provider: Jason Cantor Ph.D.
(§2) Department of Biochemistry
(§3) University of Wisconsin-Madison, Madison, WI, USA
(§4) Chemical screening studies have identified drug sensitivities across hundreds of cancer cell lines but most putative therapeutics fail to translate. Discovery and development of drug candidates in models that more accurately reflect nutrient levels in human blood is a major challenge. Here we performed high-throughput screens in conventional versus Human Plasma-Like Medium (HPLM) to identify compounds that were "missed" when screening using the artificial culture condition. Sets of conditional anticancer compounds spanned phases of clinical development and included non-oncology drugs were assessed. […] We also traced conditional phenotypes for several chemotherapeutics to availability of HPLM-specific metabolites and confirmed others for compounds whose reported targets are encoded by nonessential genes. Our findings establish generalizable strategies for exploiting conditional lethality in HPLM to reveal therapeutic candidates and mechanisms of action in cancer cells. […]
(§5) 6; Detection; Luminescence, Viewlux PerkinElmer. […]
(§6) 6. The luminescence signal was measured using a ViewLux (PerkinElmer) multiplate reader with a 2 second exposure time per plate. […]

[7] = Quantitative highthroughput screen to assess conditional lethalithy of P12 Ichikawa cells grown in RPMI1640 with dialyzed fetal bovine serum (RPMI+ds) (AID 1963880); settings: ATP luminescence, 48 h; at 45.8 µM (top of the series);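 note: 100% = DMSO wells and 0% = empty wells on each plate; nearly all actives have a fitted effect of over 35% in size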
Description: as §1, §2, §3, §4, §5, §6

[8] = Quantitative highthroughput screen to assess conditional lethalithy of P12 Ichikawa cells grown in RPMI1640 with untreated serum (RPMI+s) (AID 1963881); settings: ATP luminescence, 48 h; at 45.8 µM (top of the series);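 note: 100% = DMSO wells and 0% = empty wells without cells; nearly all actives have a fitted effect of over 35% in size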
Description: as §1, §2, §3, §4, §5, §6

[9] = Quantitative highthroughput screen to assess conditional lethalithy of SEM cells grown in RPMI1640 with unreated serum (RPMI+s) (AID 1963883); settings: SEM B-ALL cells, CellTiter-Glo viability, 48 h; at 45.8 µM (top of the series)
Description: as §1, §2, §3, §4, §5, §6

[10] = Quantitative highthroughput screen to assess conditional lethalithy of SEM cells grown in RPMI1640 with dialyzed fetal bovine serum (RPMI+ds) (AID 1963884); settings: SEM B-ALL cells, RPMI+dialyzed FBS, CellTiter-Glo viability, 48 h; at 45.8 µM (top of the series)
Description: as §1, §2, §3, §4, §5, §6

CCOC(=O)N1CCC(=O)CC1
inactive: Potency [1] | viability (% of control) [2] 98.9% | viability, % of control [3] 89.5% | activity (max response) [4] 7.83% | activity change, negative = viability loss [5] -13.6%

CC(=O)N1CCc2ccc(N(C(=O)/C=C/c3cccc(C#N)c3)C3CCN(CCC4CCCC4)CC3)cc21
active: Potency [1] 12.6 µM
inactive: viability, % of control [3] 93%

CCOC(=O)C(=O)CBr
inactive: viability (% of control) [2] 91.8% | viability, % of control [3] 87.7% | viability [6] 98% | viability [7] 90% | viability [8] 87.9% | viability [9] 87% | viability [10] 79.1% | activity (max response) [4] -1.13% | activity change, negative = viability loss [5] -4.45%

CCC(=O)N(c1ccccc1)C1CCNCC1
inactive: viability (% of control) [2] 97.8% | activity (max response) [4] -3.96% | activity change, negative = viability loss [5] -8.24%
